Reference: US11858925B2, “GAS41 inhibitors and methods of use thereof” (The Regents of the University of Michigan, priority 2020, dated 2024)

Chains of the proteins cited; added tags and fusions are not shown. Residues count along the entry.
UniProt O95619, 1-148: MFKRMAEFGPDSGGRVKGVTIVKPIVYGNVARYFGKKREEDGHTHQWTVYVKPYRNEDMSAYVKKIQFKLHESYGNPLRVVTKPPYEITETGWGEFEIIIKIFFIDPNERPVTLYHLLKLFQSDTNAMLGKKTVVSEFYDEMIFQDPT

The compounds below were run against GAS41 YEATS domain (GST-GAS41(1-148)) (Homo sapiens, UniProt O95619) (assay: biochemical).

IC50	Structure (SMILES)
> 50 µM	O=C(NCc1ccc(C(=O)N2CC(Oc3cccnc3)C2)s1)c1ccccc1 [Compound 11]
> 50 µM	O=C(NCc1ccc(C(=O)N2CCCC2)s1)C1CNC1 [Compound 14, N-((5-(pyrrolidine-1-carbonyl)thiophen-2-yl)methyl)azetidine-3-carboxamide]
> 50 µM	COC(C)(C)c1ccc(C(=O)N2CC(Oc3ccncc3)C2)s1 [Compound 15]
> 50 µM	O=C(NCc1ccc(C(=O)N2CC(Oc3nccs3)C2)s1)c1ccccc1 [Compound 16]
> 50 µM	O=C(Nc1ccc(C(=O)N2CCCC2)s1)C1CNC1 [Compound 20]
> 50 µM	O=C(Nc1ccc(C(=O)N2CC(Oc3ccncc3Cl)C2)s1)C1CNC1 [Compound 21]
> 50 µM	O=C(Nc1ccc(C(=O)N2CCCC2)s1)[C@@H]1C[C@H](F)CN1 [Compound 32]
> 50 µM	O=C(Nc1ccc(C(=O)N2CCCC2)s1)[C@@H]1Cc2ccccc2N1 [Compound 33]
> 50 µM	O=C(NCc1ccc(C(=O)N2CC(Oc3ccncc3)C2)s1)c1ccccc1 [Compound 35]
10 to 50 µM	O=C(NCc1ccc(C(=O)N2CC(Oc3ccncc3Cl)C2)s1)c1ccccc1 [Compound 36]
10 to 50 µM	O=C(Nc1ccc(C(=O)N2CCCC2)s1)C1CCN1 (stereo not drawn) [Compound 37, N-(5-(pyrrolidine-1-carbonyl)thiophen-2-yl)azetidine-2-carboxamide]
10 to 50 µM	O=C(Nc1ccc(C(=O)N2CC(c3ccncc3)C2)s1)C1CCCN1 (stereo not drawn) [Compound 40]
10 to 50 µM	O=C(Nc1ccc(C(=O)N2CC(Oc3ccnc4ccccc34)C2)s1)C1CCCN1 (stereo not drawn) [Compound 41]
10 to 50 µM	Cc1nccc(OC2CN(C(=O)c3ccc(NC(=O)C4CCCN4)s3)C2)c1Cl (stereo not drawn) [Compound 42]
10 to 50 µM	O=C(Nc1ccc(C(=O)N2CC(c3cccnc3)C2)s1)C1CCCN1 (stereo not drawn) [Compound 46]
10 to 50 µM	O=C(Nc1ccc(C(=O)N2CC(c3cncc(Cl)c3)C2)s1)C1CCCN1 (stereo not drawn) [Compound 47]
> 50 µM	O=C(Nc1ccc(C(=O)N2CC(Oc3ccncc3)C2)s1)C1CCCN1 (stereo not drawn) [Compound 48]
> 50 µM	O=C(Nc1ccc(C(=O)N2CC(Nc3ccncc3)C2)s1)[C@@H]1CCCN1 [Compound 50]
10 to 50 µM	O=C(Nc1ccc(C(=O)N2CCCC2)s1)[C@@H]1C[C@H](O)CN1 [Compound 53]
10 to 50 µM	O=C(Nc1ccc(C(=O)N2CCCC2)s1)[C@@H]1C[C@@H](O)CN1 [Compound 54]
10 to 50 µM	O=C(Nc1ccc(C(=O)N2CC(Oc3ccc(F)cc3Cl)C2)s1)[C@@H]1CCCN1 [Compound 56]
> 50 µM	CCO[C@H]1CN[C@H](C(=O)Nc2ccc(C(=O)N3CCCC3)s2)C1 [Compound 57]
10 to 50 µM	O=C(Nc1ccc(C(=O)N2CC(Oc3c(Cl)cncc3Cl)C2)s1)[C@@H]1CCCN1 [Compound 59]
10 to 50 µM	C#CCO[C@H]1CN[C@H](C(=O)Nc2ccc(C(=O)N3CCCC3)s2)C1 [Compound 60]

IC50	Structure (SMILES)
10 to 50 µM	O=C(Nc1ccc(C(=O)N2CC(Oc3ccnc4ccc(F)cc34)C2)s1)[C@@H]1CCCN1 [Compound 61]
10 to 50 µM	O=C(Nc1ccc(C(=O)N2CC(c3cc4ccccc4s3)C2)s1)[C@@H]1CCCN1 [Compound 62]
10 to 50 µM	O=C(Nc1ccc(C(=O)N2CC(OCC(F)(F)F)C2)s1)[C@@H]1CCCN1 [Compound 64]
10 to 50 µM	C=C1CN[C@H](C(=O)Nc2ccc(C(=O)N3CCCC3)s2)C1 [Compound 65]
10 to 50 µM	O=C(Nc1ccc(C(=O)N2CC(c3nc4c(Cl)cccc4s3)C2)s1)[C@@H]1CCCN1 [Compound 68]
10 to 50 µM	O=C(Nc1ccc(C(=O)N2CCCC2)s1)[C@@H]1C[C@@H](OCc2ccccc2)CN1 [Compound 70]
10 to 50 µM	O=C(Nc1ccc(C(=O)N2CC(C(F)c3ccccc3)C2)s1)[C@@H]1CCCN1 (stereo partly drawn) [Compound 72]
2 to 10 µM	O=C(Nc1ccc(C(=O)N2CC(c3ncc(-c4cccc(Cl)c4)s3)C2)s1)[C@@H]1CCCN1 [Compound 73]
10 to 50 µM	Nc1cccc(C2CN(C(=O)c3ccc(NC(=O)[C@@H]4CCCN4)s3)C2)c1 [Compound 77]
10 to 50 µM	O=C(Nc1ccc(C(=O)N2Cc3ccccc3C2)s1)[C@@H]1CCCN1 [Compound 78]
2 to 10 µM	Cn1cc(C2CN(C(=O)c3ccc(NC(=O)[C@@H]4CCCN4)s3)C2)c2cc(N)ccc21 [Compound 81]
> 50 µM	O=C(Nc1ccc(C(=O)N2CC(=Cc3ccccc3)C2)s1)[C@@H]1CCCN1 [Compound 83]
2 to 10 µM	O=C(Nc1ccc(C(=O)N2CC(c3nccs3)C2)s1)[C@@H]1CCCN1 [Compound 85, (S)—N-(5-(3-(thiazol-2-yl)azetidine-1-carbonyl)thiophen-2-yl)pyrrolidine-2-carboxamide]
2 to 10 µM	O=C(Nc1ccc(C(=O)N2CC(c3ccncc3)C2)s1)[C@@H]1CCCN1 [Compound 86]
2 to 10 µM	O=C(Nc1ccc(C(=O)N2CC(Oc3ccnc4ccc(Cl)cc34)C2)s1)[C@@H]1CCCN1 [Compound 87]
2 to 10 µM	O=C(Nc1ccc(C(=O)N2CC(c3nc4ccccc4s3)C2)s1)[C@@H]1CCCN1 [Compound 88]
2 to 10 µM	O=C(Nc1ccc(C(=O)N2CC(c3nc4ccc(Cl)cc4s3)C2)s1)[C@@H]1CCCN1 [Compound 89]
2 to 10 µM	O=C(Nc1ccc(C(=O)N2CC(Cc3ccnc4ccc(Cl)cc34)C2)s1)[C@@H]1CCCN1 [Compound 91]
2 to 10 µM	COc1cccc(-c2cnc(C3CN(C(=O)c4ccc(NC(=O)[C@@H]5CCCN5)s4)C3)s2)c1 [Compound 95]
< 2 µM	O=C(Nc1ccc(C(=O)N2CC(c3ncc(-c4ccncc4)s3)C2)s1)[C@@H]1CCCN1 [Compound 96]
2 to 10 µM	O=C(Nc1ccc(C(=O)N2CC(c3ncc(-c4ccccc4Cl)s3)C2)s1)[C@@H]1CCCN1 [Compound 97]
< 2 µM	CCCO[C@H]1CN[C@H](C(=O)Nc2ccc(C(=O)N3CC(c4nc5ccccc5s4)C3)s2)C1 [Compound 98]
2 to 10 µM	O=C(Nc1ccc(C(=O)N2CC(N3CCc4ccccc43)C2)s1)[C@@H]1CCCN1 [Compound 99]

Second part, the compound before the results:

Structure (SMILES)	IC50
CCCCOC1CCN(C(=O)c2ccc(CNC(C)=O)s2)C1 (stereo not drawn) [Compound 1]	> 50 µM
CC(=O)NCc1ccc(C(=O)N2CCC(OCc3ccccc3)C2)s1 (stereo not drawn) [Compound 2]	> 50 µM
CC(=O)NCc1ccc(C(=O)N2CCC(Oc3nccs3)C2)s1 (stereo not drawn) [Compound 3]	> 50 µM
CCCCOC1CCN(C(=O)c2ccc(CNC(=O)c3ccccc3)s2)C1 (stereo not drawn) [Compound 4]	> 50 µM
O=C(NCc1ccc(C(=O)N2CCC(OCc3ccccc3)C2)s1)c1ccccc1 (stereo not drawn) [Compound 5]	> 50 µM
O=C(NCc1ccc(C(=O)N2CCC(Oc3nccs3)C2)s1)c1ccccc1 (stereo not drawn) [Compound 6]	> 50 µM
O=C(NCc1ccc(C(=O)N2CCCC2)s1)c1ccccc1 [Compound 7]	> 50 µM
CC(N)c1ccc(C(=O)N2CCCC2)s1 (stereo not drawn) [Compound 8]	> 50 µM
CC(NC(=O)c1ccccc1)c1ccc(C(=O)N2CCCC2)s1 (stereo not drawn) [Compound 9]	> 50 µM
CC(=O)NCc1ccc(C(=O)N2CCCC2)s1 [Compound 10]	> 50 µM
O=C(NCc1ccc(C(=O)N2CC(Oc3ccccn3)C2)s1)c1ccccc1 [Compound 12]	> 50 µM
CCCC(=O)NCc1ccc(C(=O)N2CCCC2)s1 [Compound 13]	> 50 µM
O=C(c1ccc(CNS(=O)(=O)c2ccccc2)s1)N1CCCC1 [Compound 17]	> 50 µM
O=C(Cc1c[nH]cn1)NCc1ccc(C(=O)N2CCCC2)s1 [Compound 18]	> 50 µM
Cc1cc(OC2CN(C(=O)c3ccc(CNC(=O)c4ccccc4)s3)C2)ccn1 [Compound 19]	> 50 µM
O=C(c1ccc(NCC2CNC2)s1)N1CCCC1 [Compound 22]	> 50 µM
CN[C@@H](C)C(=O)Nc1ccc(C(=O)N2CCCC2)s1 [Compound 27]	> 50 µM
CN[C@H](C)C(=O)Nc1ccc(C(=O)N2CCCC2)s1 [Compound 28]	> 50 µM
CN[C@@H](Cc1ccccc1)C(=O)Nc1ccc(C(=O)N2CCCC2)s1 [Compound 29]	> 50 µM

Structure (SMILES)	IC50
CN[C@H](Cc1ccccc1)C(=O)Nc1ccc(C(=O)N2CCCC2)s1 [Compound 30]	> 50 µM
O=C(Nc1ccc(C(=O)N2CCCC2)s1)C1CN(c2ccccc2)CCN1 (stereo not drawn) [Compound 31]	> 50 µM
Cc1cc(C(=O)N2CCCC2)sc1NC(=O)[C@@H]1CCCN1 [Compound 34]	> 50 µM
O=C(Nc1ccc(C(=O)N2CCCC2)s1)C1CCCN1 (stereo not drawn) [Compound 38]	10 to 50 µM
O=C(Nc1ccc(C(=O)N2CC3(C2)CN(c2ccccn2)C3)s1)C1CCCN1 (stereo not drawn) [Compound 39]	> 50 µM
O=C(Nc1ccc(C(=O)N2CCCC2)s1)[C@@H]1CCCN1 [Compound 44, (S)—N-(5-(pyrrolidine-1-carbonyl)thiophen-2-yl)pyrrolidine-2-carboxamide]	10 to 50 µM
O=C(Nc1ccc(C(=O)N2CCCC2)s1)[C@H]1CCCN1 [Compound 45]	> 50 µM
CC1(C)CC[C@@H](C(=O)Nc2ccc(C(=O)N3CCCC3)s2)N1 [Compound 55]	> 50 µM
O=C(Nc1ccc(C(=O)N2CCCC2)s1)[C@@H]1CC2(CC2)CN1 [Compound 58]	10 to 50 µM
O=C(Nc1ccc(C(=O)N2CC(O)(c3ccccc3)C2)s1)[C@@H]1CCCN1 [Compound 66]	> 50 µM
O=C(Nc1ccc(C(=O)N2CC(F)(c3ccccc3)C2)s1)[C@@H]1CCCN1 [Compound 67]	10 to 50 µM
O=C(Nc1ccc(C(=O)N2CCCCC2)s1)[C@@H]1CCCN1 [Compound 74]	> 50 µM
O=C(c1cc2c(s1)N(C(=O)[C@@H]1CCCN1)CC2)N1CC(c2nccs2)C1 [Compound 79]	10 to 50 µM
O=C(c1cc2c(s1)N(C(=O)[C@@H]1CCCN1)CCC2)N1CC(c2nccs2)C1 [Compound 80]	10 to 50 µM
CCN(CC)c1ccc2scc(C3CN(C(=O)c4ccc(NC(=O)[C@@H]5CCCN5)s4)C3)c2c1 [Compound 82]	10 to 50 µM
O=C(Nc1cnc(C(=O)N2CC(c3nccs3)C2)s1)[C@@H]1CCCN1 [Compound 84]	10 to 50 µM
CN(C(=O)[C@@H]1CCCN1)c1ccc(C(=O)N2CC(c3nccs3)C2)s1 [Compound 100]	2 to 10 µM
COC1CC2(C1)CN(C(=O)c1ccc(NC(=O)[C@@H]3CCCN3)s1)C2 [Compound 102]	10 to 50 µM
